{"source": "patent US20030073069A1", "about": "“Drug rescue by redesign of ADMET/PK properties” (priority 2001, published 2003)", "origin": "cited, not measured here", "test_system": "P450", "settings": "induction of a P450"}
{"substance": "corticotropin", "values": [{"measurement": "No. of currently known drug interactions that involve the compound, Induction", "value": 9}]}
